{"source": "patent US9416348B2", "about": "“Hepatocyte-like cells and uses thereof” (priority 2010, dated 2016)", "key": {"TTF": {"system": "TTF", "details": "mouse, 3 h, 200 μM", "description": "To determine Alb secretion, TTFs transduced with three factors were cultured in the medium without phenol red. Culture supernatant was collected 24 h after medium change. The amount of Alb in the supernatant was determined by the mouse albumin ELISA kit (BETHYL LABORATORY) according to the manufacturer's instructions. […] The supernatants were collected for measurement of indicated productions by LC-MS/MS (AGILENT 1200 HPLC and ABI 4000 mass-spectrometer). Freshly isolated hepatocytes were used as a positive control. Total cell protein amount was used to normalize the data.\nMetabolites of these chemicals were measured by liquid chromatography-tandem mass spectrometry (LC/MS/MS) according to each standard curve."}, "Primary hepatocyte": {"system": "Primary hepatocyte", "details": "mouse, 3 h, 100 μM"}}}
{"compound": "O=C(O)Cc1ccccc1Nc1c(Cl)cccc1Cl", "note": "[Diclofenac, diclofenac]", "values": [{"measurement": "4′-OH-Diclotenac", "setting": "TTF", "value": "131.7 ± 28.5", "unit": "pmol/min/mg protein"}, {"measurement": "4′-OH-Diclotenac", "setting": "Primary hepatocyte", "value": "785.6 ± 77.9", "unit": "pmol/min/mg protein"}]}
